Target: 5-HT6R (Homo sapiens, UniProt P50406)
Assay: Basal cAMP production (constitutive Gs signaling) in NG108-15 cells transiently expressing 5-HT6R, CAMYEL BRET
Assay type: cell-based
Design: expressed in transfected cells; host or cells: NG108-15 (transient, Lipofectamine 2000, cotransfected with the CAMYEL sensor)
Settings: 5-HT6R-dependent Gs signaling
Method: NG108-15 cells were grown in Dulbecco’s modified Eagle’s medium (DMEM) supplemented with 10% dialyzed fetal calf serum, 2% hypoxanthine/aminopterin/thymidine (Life Technologies), and antibiotics. cAMP measurement was performed in cells transiently expressing 5-HT6R using the bioluminescence resonance energy transfer (BRET) sensor for cAMP, CAMYEL (cAMP sensor using YFP-Epac-RLuc).[45] NG108-15 cells were cotransfected in suspension with 5-HT6R (0.5 μg DNA/million cells) and CAMYEL constructs (1 μg DNA/million cells), using Lipofectamine 2000 according to the manufacturer’s protocol, and plated in white 96-well plates (Greiner) at a density of 50 000 cells per well. […] Coelanterazine H (Molecular Probes) was added at a final concentration of 5 μM and left at room temperature for 5 min. BRET was measured using a Mithras LB 940 plate reader (Berthold Technologies).

Amino acid sequences for entries named in this document (tags omitted).
UniProt P50406, whole entry: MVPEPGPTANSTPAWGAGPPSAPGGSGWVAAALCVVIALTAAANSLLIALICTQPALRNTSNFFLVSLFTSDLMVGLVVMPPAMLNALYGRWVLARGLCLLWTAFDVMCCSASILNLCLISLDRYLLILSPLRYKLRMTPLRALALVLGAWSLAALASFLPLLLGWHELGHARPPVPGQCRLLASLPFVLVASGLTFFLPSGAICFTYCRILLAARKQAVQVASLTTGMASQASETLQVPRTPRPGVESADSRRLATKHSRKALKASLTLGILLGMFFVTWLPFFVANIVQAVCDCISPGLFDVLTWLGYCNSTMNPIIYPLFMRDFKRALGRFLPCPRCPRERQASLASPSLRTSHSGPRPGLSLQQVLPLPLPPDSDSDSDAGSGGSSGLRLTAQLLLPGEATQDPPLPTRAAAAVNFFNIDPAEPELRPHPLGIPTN

## COc1ccc(NS(=O)(=O)c2sc3ccc(Cl)cc3c2C)cc1N1CCNCC1 [SB-271046, reference compound]
  functional profile: inverse agonist

Reference: paper PMC8041276 (ACS Chemical Neuroscience, 2021)
